According to patent US5610155A, “Condensed diazepinones, processes for preparing them and agents containing these compounds for treating diseases of the central nervous system and for promoting cerebral blood circulation” (Dr. Karl Thomae GmbH, priority 1995, dated 1997):

System: arecoline-induced increase in blood pressure
Experiment: Investigation for central activity: arecoline test, CNS-penetration in vivo
Details: rat, i.v.
Experimental: Principle: Arecoline has both a central and a peripherally active component. […] Cerebroavailable antimuscarinics block this central effect. Method: Male rats weighing 300 g are anaesthetised i.p. with urethane (1.2 g/kg). The trachea is […], the animals are respirated with an air/oxygen mixture (80 breaths per minute). The blood pressure is recorded after canulation of the carotid artery by means of a pressure recorder (Bell and Howell Type 4-327-I). The test substances are administered through the jugular vein ([…]). […] The arecoline is administered (in doses of 0.3 mg/kg) at 15 minute intervals. After 2 comparison values, the test substance is injected in increasing doses 5 minutes before the next administration of arecoline. The results obtained were compared with the average starting values and determined as the percentage inhibition.

| SMILES | Effect on arecoline-mediated central effects / increase in blood pressure (in words) |
| --- | --- |
| O=C1Nc2cccnc2N(C(=O)CCCCCN2CCCCC2)c2ccccc21 [O] | no effect on the increase in blood pressure caused by arecoline |
| CCN(CC)CC1CCCCN1CC(=O)N1c2ccccc2C(=O)Nc2cccnc21 (stereo not drawn) [H] | no effect on the increase in blood pressure caused by arecoline |
| CCN(CC)CC1CCCCN1CC(=O)N1c2cc(Cl)ccc2C(=O)Nc2cccnc21 (stereo not drawn) [K] | no effect on the increase in blood pressure caused by arecoline |
